Values joined by “and” are separate entries in the source; they are usually repeats but may differ in a detail not shown here. Equal entries are not always repeated. ± gives the expanded uncertainty stated by the source.
Settings: 313.15 K; Liquid; Closed cell (Static) method

## CCCCOCCCC [dibutyl ether]
  vapor or sublimation pressure: 2.062 ± 0.022 kPa and 2.079 ± 0.023 kPa and 2.075 ± 0.023 kPa

Reference: the NIST ThermoML archive (doi:10.1016/j.fluid.2005.11.026)
